Assay results from patent publication US20250042848A1, “DEUTERATED FUNCTIONALIZED DERIVATIVES OF alpha-ALANINE, IN [sequence] FOR THE TREATMENT OF NEUROLOGICAL DISEASES” (UNIWERSYTET JAGIELLONSKI, priority 2021, published 2025).

Settings: mouse, in vivo, po, 40 mg/kg
Description: The animals were housed at a temperature of 22-24° C., humidity of 50% (+/−10%), in a room providing 15 air changes per hour, with 12:12 hours light-dark cycle. In addition, they had constant access to food and water. […] Blood was allowed to clot at room temperature for 20 min, then centrifuged for 5 min, 10,000×g (Eppendorf miniSpin centrifuge, Germany) to obtain serum. The obtained biological material was stored at −70° C. until analysis.
Concentrations of the tested compounds in murine serum and brain homogenates were determined by high-performance liquid chromatography-tandem mass spectrometry (HPLC-MS/MS). Analyzes were performed on a Sciex QTRAP 4500 triple quad mass spectrometer coupled to an Exion LC AC HPLC (Danaher Corporation, USA). The chromatographic separation was carried out on a Hypersil Gold™ C18 column (3×50 mm, 5 μm, Thermo Scientific, USA), using a mixture of acetonitrile and water with 0.1% formic acid as the mobile phase. Analyzes were performed at 40° C. and the gradient shown in Table 7 was used to obtain optimal retention time. Valsartan was used as an internal standard. Positive ionization mode (ESI+) was used for maximum sensitivity. Ion path parameters were optimized by continuous infusion (7 μL/min) of a solution of the tested compound directly to the mass spectrometer using a syringe pump. […]

## CC(C(=O)NCc1ccccc1F)N1C(=O)CCC1=O (stereo not shown) [Compound 2, reference compound]
  Vz/F: 2.91 L/kg
